Test results as given in patent US9910050B2, “Mutant smoothened and methods of using the same” (Curis, Inc., priority 2009, dated 2018).

Sequences of proteins named here, by UniProt entry; tags and fusion partners are left off. Residues count along the entry.
UniProt Q99835, 28-787 D473H: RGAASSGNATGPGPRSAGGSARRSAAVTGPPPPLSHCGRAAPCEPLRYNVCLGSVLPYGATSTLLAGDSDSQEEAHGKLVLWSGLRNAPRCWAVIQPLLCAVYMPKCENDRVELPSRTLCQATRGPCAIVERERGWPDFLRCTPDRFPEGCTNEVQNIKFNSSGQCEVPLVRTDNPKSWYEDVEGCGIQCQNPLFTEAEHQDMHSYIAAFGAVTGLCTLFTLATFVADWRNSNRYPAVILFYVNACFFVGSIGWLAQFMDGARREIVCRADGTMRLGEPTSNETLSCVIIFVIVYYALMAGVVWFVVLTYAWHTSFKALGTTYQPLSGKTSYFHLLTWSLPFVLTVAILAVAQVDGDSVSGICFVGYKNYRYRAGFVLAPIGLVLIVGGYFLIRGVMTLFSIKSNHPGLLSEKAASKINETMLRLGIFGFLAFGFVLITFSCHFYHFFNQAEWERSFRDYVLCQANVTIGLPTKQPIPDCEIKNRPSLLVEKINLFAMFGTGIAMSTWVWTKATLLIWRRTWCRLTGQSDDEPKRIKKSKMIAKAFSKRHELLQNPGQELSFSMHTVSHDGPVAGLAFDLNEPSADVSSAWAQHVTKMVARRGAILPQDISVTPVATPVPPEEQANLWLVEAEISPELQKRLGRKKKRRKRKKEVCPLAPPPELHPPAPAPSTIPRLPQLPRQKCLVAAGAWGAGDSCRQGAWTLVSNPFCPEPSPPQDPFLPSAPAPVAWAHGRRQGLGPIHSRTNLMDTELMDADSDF

Target: T1, SMO-D473H (Homo sapiens, UniProt Q99835, D473H)
T1 construct: expressed in transfected cells; host or cells: C3H10T½ cells (reporter assay)
Assay: Gli-luciferase reporter assay in C3H10T½ cells transfected with SMO-D473H
Assay type: cell-based
Procedure: For the PTCH1 inhibition experiments, cells were transfected with an additional 200 ng of DNA containing varying ratios of PTCH1 to eGFP expression constructs. For the NF-κB and SV40 reporter assays, Gli-BS was replaced with either pGL4.32 or pGL3-Promoter. Six hours later, cells were collected by trypsin treatment and each well was redistributed over four wells of a 12-well plate. The FBS content of the culture medium was reduced to 0.5% the following morning to induce formation of primary cilia, and small molecule Hh inhibitors were added at indicated concentrations. […] Values were divided by Renilla luciferase activities to normalize for transfection efficiency and are shown as the mean of three separate experiments±1 standard deviation.

In the case of KAAD-cyclopamine, the “change in IC50, SMO-D473H versus SMO-WT” value (GLI-luciferase reporter activity) is reported as 43 fold and the “activity against SMO-D473H, inhibition of Gli-luciferase activity” value (screen at 1 μM compound) is reported as “fully inhibits Smo-D473H”.
